Source: patent US20190292189A1, “LIM KINASE INHIBITORS” (VIRONGY, LLC, priority 2016, published 2019)

By UniProt entry, the sequences of proteins in these tests, tags left out.
UniProt O75116, whole entry, species assumed: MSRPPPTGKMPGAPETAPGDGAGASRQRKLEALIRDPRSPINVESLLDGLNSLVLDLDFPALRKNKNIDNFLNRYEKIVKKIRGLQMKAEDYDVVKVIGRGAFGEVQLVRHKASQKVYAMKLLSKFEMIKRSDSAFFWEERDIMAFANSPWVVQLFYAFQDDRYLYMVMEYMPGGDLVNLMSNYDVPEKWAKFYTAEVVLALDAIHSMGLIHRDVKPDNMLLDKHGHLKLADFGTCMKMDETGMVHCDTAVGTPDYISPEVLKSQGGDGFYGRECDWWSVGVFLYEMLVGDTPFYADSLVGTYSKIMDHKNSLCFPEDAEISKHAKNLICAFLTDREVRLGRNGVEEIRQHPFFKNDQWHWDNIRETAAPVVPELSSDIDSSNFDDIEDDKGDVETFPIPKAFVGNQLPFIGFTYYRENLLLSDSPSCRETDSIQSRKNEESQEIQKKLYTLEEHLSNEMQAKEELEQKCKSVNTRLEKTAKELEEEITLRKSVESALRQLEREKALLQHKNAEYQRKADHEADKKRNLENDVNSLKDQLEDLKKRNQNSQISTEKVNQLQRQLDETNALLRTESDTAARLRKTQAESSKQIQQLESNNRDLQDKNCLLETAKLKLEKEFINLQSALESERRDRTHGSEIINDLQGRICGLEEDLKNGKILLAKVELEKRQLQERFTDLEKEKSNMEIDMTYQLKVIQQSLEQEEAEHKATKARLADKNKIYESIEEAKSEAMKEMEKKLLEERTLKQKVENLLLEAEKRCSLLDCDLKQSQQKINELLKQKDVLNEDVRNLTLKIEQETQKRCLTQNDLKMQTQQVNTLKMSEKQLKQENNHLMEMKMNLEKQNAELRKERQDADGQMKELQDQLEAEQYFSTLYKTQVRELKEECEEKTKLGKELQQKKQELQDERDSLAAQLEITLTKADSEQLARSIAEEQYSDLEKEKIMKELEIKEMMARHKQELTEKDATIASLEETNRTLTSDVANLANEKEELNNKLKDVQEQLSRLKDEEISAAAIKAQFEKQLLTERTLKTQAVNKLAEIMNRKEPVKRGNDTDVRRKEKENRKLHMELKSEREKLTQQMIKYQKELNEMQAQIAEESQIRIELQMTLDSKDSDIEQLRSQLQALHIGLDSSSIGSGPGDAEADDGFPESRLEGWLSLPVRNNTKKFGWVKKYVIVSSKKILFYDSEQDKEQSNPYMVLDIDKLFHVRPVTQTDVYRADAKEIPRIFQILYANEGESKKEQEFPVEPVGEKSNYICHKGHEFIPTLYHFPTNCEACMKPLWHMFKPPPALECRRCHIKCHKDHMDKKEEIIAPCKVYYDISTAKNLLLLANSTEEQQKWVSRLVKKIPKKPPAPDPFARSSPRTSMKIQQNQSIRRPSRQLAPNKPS

Tests used:
[1] = target: ROCK-II (Homo sapiens, UniProt O75116); assay: ROCK-II biochemical counter-screen; conditions: based on IC50 values, ROCK-II vs Limk1
[2] = IOP lowering on rat eyes, topical dosing; format: in vivo, Brown Norway rats; conditions: 50 μg topical; at 4 h, compared to the vehicle
[3] = system: cofilin phosphorylation in A7r5 cells; assay: In-cell Western assay of cofilin phosphorylation in A7r5 cells; format: cell-based
Description: A7r5 (15,000 cells/well) were plated in a clear-bottomed Packard View black 96-well plate in 100 μl of 10% FBS DMEM:F12 medium and were allowed to attach overnight. The next day, the cells were serum starved in 1% FBS DMEM medium for 2 hr and then treated with the compounds for 1 hr. […] Next day, they were washed twice with PBS-0.1% Tween 20 (PBST) washing solution for 5 min each at room temperature on the orbital shaker, followed by one wash with Licor Blocking Buffer containing 0.05% Tween-20 for 5 min on the shaker at RT. The cells were then incubated with secondary antibody goat anti-rabbit IR800 (1:500 dilution) for 1 hr at RT in the dark (covered the plate with foil) in Licor blocking buffer-containing Tween-20. Following this, cells were washed twice with PBST for 5 min each at room temperature and then once with Licor blocking buffer-containing 0.05% Tween-20. The wells were then incubated with ToPro 3 stain (nucleic acid staining), diluted 1:4000 in Licor blocking buffer or Licor blocking buffer with 0.05% Tween-20 for 30 min at room temperature in the dark. Finally the plates were washed twice with PBS and analyzed using the Odyssey LICOR Infrared Scanner.

Row | selectivity over ROCK-II [1] | SMILES | IC50 [3] | further results
1 | 43 fold | Cc1c[nH]c2ncnc(-c3ccc(NC(=O)Nc4cccc(C(=O)NC(C)C)c4)c(F)c3)c12 [Compound 7k, 3-(3-(2-Fluoro-4-(5-methyl-7H-pyrrolo[2,3-d]pyrimidin-4-yl)phenyl)ureido)-N-isopropylbenzamide] |  | 
2 | > 500 fold | Cc1c[nH]c2ncnc(-c3ccc(NC(=O)N(CCN(C)C)c4ccc(Cl)cc4)cc3)c12 [Compound 18r, 1-(4-Chlorophenyl)-1-(2-(dimethylamino)ethyl)-3-(4-(5-methyl-7H-pyrrolo[2,3-d]pyrimidin-4-yl)phenyl)urea] |  | 
3 |  | Cc1[nH]c2ncnc(-c3ccc(NC(=O)N(CCN(C)C)c4ccc(Cl)cc4)c(F)c3)c2c1C [Compound 18w, 1-(4-Chlorophenyl)-3-(4-(5,6-dimethyl-7H-pyrrolo[2,3-d]pyrimidin-4-yl)-2-fluorophenyl)-1-(2-(dimethylamino)ethyl)urea] |  | IOP-lowering effect [2]: significant decreases in IOP
4 |  | COc1ccc(N(CCO)C(=O)Nc2ccc(-c3ncnc4[nH]cc(C)c34)cc2)cc1 [Compound 18n, 1-(2-hydroxyethyl)-1-(4-methoxyphenyl)-3-(4-(5-methyl-7H-pyrrolo[2,3-d]pyrimidin-4-yl)phenyl)urea] | 730 nM | 
5 |  | Cc1ccc(N(CCO)C(=O)Nc2ccc(-c3ncnc4[nH]cc(C)c34)cc2)cc1 [Compound 18k, 1-(2-Hydroxyethyl)-3-(4-(5-methyl-7H-pyrrolo[2,3-d]pyrimidin-4-yl)phenyl)-1-p-tolylurea] | 190 nM | 
